Data on 21 compounds can be found in PubChem BioAssay (Tox21).

SMILES strings stand for the structures. Where “and” joins values, the source holds several entries; their conditions need not be identical. Identical values can stand only once. Only a part is listed here, and it is no random draw. Records with an inconclusive call do not appear. Calls of active or inactive are those of the source. Calls come from the whole dose curve; as a rule, active = well fitted cell-killing curve with a large enough effect in the repeat runs; inconclusive = weak or mixed curves, or effect the other way; inactive = flat fitted curve, though single readings scatter.
% is set by controls: 0 for no effect and ±100 for the full control effect.

This test can be described thus: qHTS RealTime-Glo MT Cell Viability Assay in HepG2 cells - 0 hour (AID 1224889). Note: nearly all actives have a fitted effect of over 50% in size. Conditions: RealTime-Glo luminescence; at 76.8 µM (top of the series) unless noted. An excerpt: U.S. Tox21 Program National Center for Advancing Translational Sciences [NCATS] NIH Chemical Genomics Center [NCGC] U.S. Environmental Protection Agency [EPA] National Institutes of Environmental Health Sciences [NIEHS] National Toxicology Program [NTP] U.S. Food and Drug Administration [FDA] Tox21 Assay Overview: Measure of cell viability is critical in the cell-base assay. Analysis of cell viability is necessary for the characterization of cell responses to cytotoxic drugs and environmental stress. A RealTime-Glo MT Cell Viability Assay to monitor cell viability in real time of continues cell culture during 40 hours of compound treatment was used to screen Tox21 10K library compounds in HepG2 cells. The RealTime-Glo MT Cell Viability Assay is a nonlytic, homogeneous, bioluminescent method to measure cell viability in real time using a simple, plate-based method. The assay involves adding NanoLuc luciferase and a cell-permeant prosubstrate to cells in culture. Viable cells reduce the proprietary prosubstrate to generate a substrate for NanoLuc luciferase. This substrate diffuses from cells into the surrounding culture medium, where it is rapidly used by the NanoLuc Enzyme to produce a luminescent signal. The signal correlates with the number of viable cells, making the assay well suited for cytotoxicity studies.
Tox21 Assay Protocol Summary: The mixture of HepG2 cell suspension and reagents were dispensed at 600cells/6 ul/well in 1536-well tissue culture treated black solid bottom plates using a Multidrop dispenser. After the assay plates were incubated at a 37 C/5% CO2 incubator for 5 hours, 23 nL of compounds dissolved in DMSO, positive and negative controls was transferred to the assay plate by a pintool work station. The plates were incubated at 37 C for 40 hours. The luminescence intensity were measured at 0h, 8h, 16h, 24h, 32h and 40h time points using ViewLux plate reader during compound treatment.
(qHTS replaces the single test concentration by a dilution series.)
As for `COP(C)(=O)OC`, the activity change, negative = cytotoxicity is inactive: 2.11% and inactive: -8.79%.

`O=[N+]([O-])[O-].[NH4+]`: the activity change, negative = cytotoxicity is inactive: 6.99% and inactive: 3.88%.

Turning to `CP(=O)(O)OCCC[Si](O)(O)O`, the activity change, negative = cytotoxicity is inactive: 2.17%.

With `Cc1cccc([N+](=O)[O-])c1[N+](=O)[O-]`, the activity change, negative = cytotoxicity was inactive: 7.57% [at 35.3 µM].

With `Cc1ccc([N+](=O)[O-])c([N+](=O)[O-])c1`, the activity change, negative = cytotoxicity was inactive: 1.81% and inactive: -4.01%.

`CN(C)CCCl`: the activity change, negative = cytotoxicity is inactive: -0.227%.

Regarding `[NH4+].[O-][Cl+3]([O-])([O-])[O-]`, the activity change, negative = cytotoxicity is inactive: 3.54% and inactive: -2.31%.

As for `O=[N+]([O-])c1cccc([N+](=O)[O-])c1`, the activity change, negative = cytotoxicity is inactive: 10.2%.

Consider `O=[N+]([O-])OCC(CO[N+](=O)[O-])(CO[N+](=O)[O-])CO[N+](=O)[O-]`, for which the activity change, negative = cytotoxicity was inactive: 4.65%.

Consider `CCOP(=O)(CC)Oc1ccc([N+](=O)[O-])cc1` (stereo unspecified), for which the activity change, negative = cytotoxicity is inactive: -2.58% [at 35.3 µM].

For `CCN(CC)CCCl`, the activity change, negative = cytotoxicity is inactive: -0.565%.

As for `CC(C)OP(C)(=O)OC(C)C`, the activity change, negative = cytotoxicity is inactive: -5.34% and inactive: 0.819%.

On to `CC(C)N(CCO)C(C)C`, for which the activity change, negative = cytotoxicity was inactive: -13%.

Consider `CCOP(=O)(CC)OCC`, for which the activity change, negative = cytotoxicity is inactive: 0.458%.

Consider `N#CBr`, for which the activity change, negative = cytotoxicity is inactive: -12.9%.

As to `C/C1=C2N=C(/C=C3N=C(/C(C)=C4\[N-][C@@](C)([C@@H]5N=C1[C@](C)(CCC(=O)NC[C@@H](C)OP(=O)([O-])O[C@H]1[C@@H](O)[C@@H](n6cnc7cc(C)c(C)cc76)O[C@@H]1CO)[C@H]5CC(N)=O)[C@@](C)(CC(N)=O)[C@@H]4CCC(N)=O)[C@@](C)(CC(N)=O)[C@@H]\3CCC(N)=O)C(C)(C)[C@@H]/2CCC(N)=O.[C-]#N.[Co+3]`, the activity change, negative = cytotoxicity is inactive: 6.03% [at 35.3 µM].

Turning to `Cc1c([N+](=O)[O-])cccc1[N+](=O)[O-]`, the activity change, negative = cytotoxicity was inactive: -1.83% and inactive: 3.97%.

As to `Cc1ccc([N+](=O)[O-])cc1[N+](=O)[O-]`, the activity change, negative = cytotoxicity is inactive: 1.25% and inactive: 7.12%.

As for `COc1ccc([N+](=O)[O-])cc1[N+](=O)[O-]`, the activity change, negative = cytotoxicity was inactive: 3.67%.

`N=C(N)N[N+](=O)[O-]`: the activity change, negative = cytotoxicity is inactive: -3.6%.

With `Nc1cc([N+](=O)[O-])cc([N+](=O)[O-])c1O`, the activity change, negative = cytotoxicity was inactive: 0.254%.
